# Data taken from patent publication US20090238895A1, “NUTRITIONAL AND/OR PHARMACEUTICAL PREPARATION FOR USE IN PROPHYLAXIS AND TREATMENT OF DISTURBANCES IN MICROELEMENTS ABSORPTION FROM THE ALIMENTARY CANAL” (priority 2004, published 2009).
# Marks after values point to notes of the source that are not given here.
# Key:
# [1] = Iron concentration in plasma of young pigs after FeSO4 or FeSO4/AKG infusion to the duodenum or pelvic intestine; format: in vivo; conditions: AKG administered enterally with FeSO4
# Method: (§1) Investigations were performed on 3 piglets of the Swedish race Landrace weighting 30-35 kg. Animals originated from the university herd (Swedish Agricultural University, Dept. of Agricultural Biosystems and Technology, Lund). Young pigs were fed 2 times a day at the same time (9:00-10:00 a.m. and 3:00-4:00 p.m.) with a standard fodder (Vaxfor, Lantmanen, Sweden) with a daily dose 50 g/kg body weight. They were watered ad libitum. Animals were held separately in boxes with automatically regulated 12 hour's periods of day and night.
# (§2) Sterile catheters and T-fistulas used in the experience were made of silicone tubes with maintained medical standards (Dow Cornning). Piglets were starved for 9-12 hours before the operation. Before the operation animals received a sedative drug—azoperone (Stresnil, 2 mg/kg body weight). Then the inhalation induction of general anaesthesia was performed (Fluothan 0.5-1.5 vol %). […] With the catheters inserted to the portal vein and the common carotid-artery the blood samples for later analyses were collected.
# Two incisions were done: one 10-15 cm close to the right hunger fossa, second 2-3 cm between the brachial joint and the angle of the mandible. Duodenal fistula was placed behind the opening of the pancreatic duct to the duodenum. […]
# [2] = AKG concentration in plasma of young pigs after AKG or FeSO4/AKG infusion to the duodenum or pelvic intestine; format: in vivo
# Method: as §1, §2
# Two incisions were done: one 10-15 cm close to the right hunger fossa, second 2-3 cm between the brachial joint and the angle of the mandible. Duodenal fistula was placed behind the opening of the pancreatic duct to the duodenum. Pelvic T-fistula (int. diameter 3.18 mm and ext. diameter 4.64 mm—both fistulas) was introduced to the pelvic intestine at the end of the caeco-iliac ligament.
# The catheter to the portal vein (int. diameter 0.64 mm and ext. diameter 1.19 mm) was introduced through the liver and fixed with several sutures (0-2 Catgut, Ethicon, England). The catheter placed in portal vein and both intestinal fistulas were brought out the body in the line of incision. After dissection of zygomatic vein the catheter was introduced in the cardiac direction on the depth of 7 cm. The vein was closed with the double ligature (0-3 silicone-, Ethicon, England) and brought outside the body with the surgical needle in the dorsal part of the neck. The abdomen and the neck wounds were closed with two layers of sutures: the peritoneum (only in the abdomen wound) and muscles were closed with twisted suture (0-0 Catgut , Ethicon), the skin was closed with the interrupted sutures (Suturamid 2-0, Ethicon). After operation young pigs were placed in separate boxes. During 5 postoperative days animals were fed twice a day, they received water ad libitum. The operation was performed by the skilled surgeon in accordance with surgical techniques.
# Before infusion animals were starved. The daily dose of food was given during evening feeding at 3:00 p.m. All infusions were started at 9:00 a.m. Blood samples were taken 30 minutes before and 15, 30, 60 and 120 minutes after the infusion. 2. Infusions composition.
# [3] = 4 volunteers; 1 litre of 10% AKG-soda salt solution orally after iron formate 200 mg, vs glucose/NaCl
# [4] = 4 volunteers; 1 litre of 10% AKG-soda salt solution orally after 200 mg zinc sulphate, vs glucose/NaCl
# [5] = rats; MnCl2 with AKG-soda salt 0.5 g/kg body weight; back part of jejunum; bile and liver Mn
smiles,measurement,setting,value
"O=C(O)CCC(=O)C(=O)O [AKG, Alpha-ketoglutarate acid]",effect on iron absorption from the intestine into the blood,[1],significantly increases iron absorption from the intestine into the blood
same,AKG concentration in plasma,"[2]; infusion to pelvic intestine, portal vein, 15 min",5.33 ± 2.48^b μg/l
same,AKG concentration in plasma,"[2]; infusion to pelvic intestine, portal vein, 30 min",4.06 ± 2.55^b μg/l
same,AKG concentration in plasma,"[2]; infusion to pelvic intestine, portal vein, 60 min",4.18 ± 0.63^b μg/l
same,AKG concentration in plasma,"[2]; infusion to pelvic intestine, portal vein, 120 min",4.05 ± 0.16^b μg/l
same,AKG concentration in plasma,"[2]; infusion to pelvic intestine, portal vein, -30 min (before infusion)",3.80 ± 2.57^b μg/l
same,AKG concentration in plasma,"[2]; infusion to pelvic intestine, zygomatic vein, 15 min",2.96 ± 0.29^b μg/l
same,AKG concentration in plasma,"[2]; infusion to pelvic intestine, zygomatic vein, 30 min",2.55 ± 1.26^b μg/l
same,AKG concentration in plasma,"[2]; infusion to pelvic intestine, zygomatic vein, 60 min",2.58 ± 0.26^b μg/l
same,AKG concentration in plasma,"[2]; infusion to pelvic intestine, zygomatic vein, 120 min",2.60 ± 0.73^b μg/l
same,AKG concentration in plasma,"[2]; infusion to pelvic intestine, zygomatic vein, -30 min (before infusion)",1.47 ± 0.65^a μg/l
same,AKG concentration in plasma,"[2]; infusion to the duodenum, portal vein, 15 min",28.62 ± 2.84^f μg/l
same,AKG concentration in plasma,"[2]; infusion to the duodenum, portal vein, 30 min",22.86 ± 4.08^f μg/l
same,AKG concentration in plasma,"[2]; infusion to the duodenum, portal vein, 60 min",13.53 ± 3.04^e μg/l
same,AKG concentration in plasma,"[2]; infusion to the duodenum, portal vein, 120 min",11.11 ± 6.70^ce μg/l
same,AKG concentration in plasma,"[2]; infusion to the duodenum, portal vein, -30 min (before infusion)",3.38 ± 0.54^b μg/l
same,AKG concentration in plasma,"[2]; infusion to the duodenum, zygomatic vein, 15 min",11.32 ± 6.94^d μg/l
same,AKG concentration in plasma,"[2]; infusion to the duodenum, zygomatic vein, 30 min",13.62 ± 3.91^d μg/l
same,AKG concentration in plasma,"[2]; infusion to the duodenum, zygomatic vein, 60 min",7.72 ± 2.69^cb μg/l
same,AKG concentration in plasma,"[2]; infusion to the duodenum, zygomatic vein, 120 min",4.82 ± 3.39^b μg/l
same,AKG concentration in plasma,"[2]; infusion to the duodenum, zygomatic vein, -30 min (before infusion)",1.87 ± 0.64^a μg/l
same,effect on quantitative absorption of Fe2+ ions from the alimentary canal into the blood,[3],increases quantitative absorption of Fe2+ and Zn2+ ions from the alimentary canal into the blood
same,effect on quantitative absorption of Zn2+ ions from the alimentary canal into the blood,[4],increases quantitative absorption of Fe2+ and Zn2+ ions from the alimentary canal into the blood
same,effect on absorption of manganese (Mn) from the intestine,[5],increases the absorption of the manganese (Mn) from the back part of jejunum
